TDP1 inh = inhibitors of human tyrosyl-DNA phosphodiesterase TDP1. recombinant TDP1, AlphaScreen DNA substrate cleavage. AID 485290. Potency, µM (series often up to 130 µM), hits mostly inhibitors. hit rate 0.28% among 350,000; note: nearly all actives have a fitted effect of over 40% in size
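Steps: enzyme plus compound, 15 min RT; add biotin/phosphotyrosine-FITC oligonucleotide (15 nM final), react 5 min; add donor/acceptor beads (10 ug/ml final), 10 min; read AlphaScreen. Tdp1 at 1 nM final.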
TDP1 cell noCPT = qHTS for Inhibitors of human tyrosyl-DNA phosphodiesterase 1 (TDP1): qHTS in cells in absence of CPT; AID 686978, 2013; hit rate 15% among 420,000; Potency, µM (top dose mostly 46.2 µM), hits mostly inhibitors; DT40 Tdp1-/- hTDP1 cells, no CPT, ATP luminescence, 48 h; note: nearly all actives have a fitted effect of over 55% in size
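Luminescent ATP content (CellTiter-Glo) served as the growth readout. Knockout chicken DT40 cells expressing human TDP1 were exposed to compounds without camptothecin for a minimum 48 hr at 37 °C.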
miR-21 reporter = raises the signal of a miR-21 reporter; HeLa miR-21 FLuc reporter, luciferase, 48 h; Potency, µM (series often up to 38.3 µM); 340,000 tested, under 10 active; active = well fitted rising curve with a large enough effect; inconclusive = small, poorly fitted or top-dose-only effect; inactive = no such curve, though single readings can be large or run the other way;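 also: miR-21 action dims this reporter so a rising signal means less miR-21 action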
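Luminescence from a firefly luciferase reporter carrying a miR-21 binding site downstream, stably expressed under a CMV promoter in HeLa cells that make miR-21 endogenously, reports miRNA modulation after 48 h compound exposure up to approximately 40uM final.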
uPA surface inh = inhibitors of cell surface uPA generation. hit rate 0.31% among 330,000. cell surface uPA generation assay, qHTS. Potency, µM (titrated, usually from 38.3 µM), actives largely listed as inhibitors; active = well fitted inhibition curve with a large enough effect; inconclusive = small, poorly fitted or top-dose-only effect; inactive = no such curve, though single readings can be large or run the other way; tested in mouse RAW 264.7 cells; note: nearly all actives have a fitted effect of over 55% in size
DT40 TDP1 CPT = growth inhibition of DT40 Tdp1-/-;hTDP1 cells with camptothecin (screen for TDP1 inhibitors); Potency, µM (highest dose often 46.2 µM), usual class: inhibitors; chicken DT40 Tdp1-/-;hTDP1 cells + 20 nM CPT, ATP luminescence, 48 h; hit rate 12% among 420,000; AID 686979; note: nearly all actives have a fitted effect of over 55% in size
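Chicken DT40 Tdp1-/- cells stably complemented with human TDP1 were seeded at 400 cells/well in medium containing 20 nM camptothecin, exposed to pin-transferred compounds, and grown at 37 °C for at least 48 hr. Viability was read as ATP luminescence.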
Hits are given with their value. In the library only some 16% were active in any assay of this set; here they are far more common. Unless noted, calls come from the whole dose curve; as a rule, active = well fitted curve in the direction sought with a large enough effect; inconclusive = small, poorly fitted or top-dose-only effect, or another doubt; inactive = no such curve, though single readings can be large; an effect the other way counts as inactive or inconclusive.

`CCOC(=O)c1ccc(NC(=O)c2nc[nH]c2C(=O)NCCCCCNC(=O)OC(C)(C)C)cc1` gave TDP1 inh inactive, TDP1 cell noCPT 18µM, miR-21 reporter inactive, uPA surface inh inactive and DT40 TDP1 CPT inconclusive.
`CCOC(=O)c1ccc(NC(=O)c2nc[nH]c2C(=O)NCCCCNC(=O)c2[nH]cnc2C(=O)Nc2ccc(C(=O)OCC)cc2)cc1` gave TDP1 inh inactive, TDP1 cell noCPT 4.6µM, uPA surface inh inactive and DT40 TDP1 CPT inconclusive.
For COCCNC(=O)CN1CCC(NC(=O)Nc2ccc(C(F)(F)F)cc2)CC1 the results were TDP1 inh inactive, TDP1 cell noCPT inactive, miR-21 reporter inactive and DT40 TDP1 CPT inactive.
For Cc1ccc(C)c(-n2c3nc(=O)[nH]c(=O)c-3cc3cc([N+](=O)[O-])ccc32)c1 the results were TDP1 inh inactive, TDP1 cell noCPT 0.82µM, miR-21 reporter inconclusive, uPA surface inh inactive and DT40 TDP1 CPT 1.2µM.
Cc1cccc(-n2c3nc(=O)[nH]c(=O)c-3cc3cc([N+](=O)[O-])ccc32)c1 was read as TDP1 inh inactive, TDP1 cell noCPT inactive, miR-21 reporter inactive, uPA surface inh inactive and DT40 TDP1 CPT 4.6µM.
O=c1nc2n(-c3ccccc3F)c3ccccc3cc-2c(=O)[nH]1 was read as TDP1 inh inactive, TDP1 cell noCPT inconclusive, miR-21 reporter inactive and DT40 TDP1 CPT inconclusive.
`CC(NC(=S)Nc1ccc(OC(F)F)c(Cl)c1)C(C)(C)C` (configuration not stated) gave TDP1 inh inactive, TDP1 cell noCPT inconclusive, miR-21 reporter inactive, uPA surface inh inactive and DT40 TDP1 CPT inconclusive.
Screening CC1CCCCC1NC(=O)COC(=O)C12CC3CC(CC(Cl)(C3)C1)C2 (configuration not stated) returned TDP1 inh inactive, TDP1 cell noCPT inactive, miR-21 reporter inactive, uPA surface inh inactive and DT40 TDP1 CPT inactive.
For COc1ccccc1N1CCN(C(=O)Cn2cnc3onc(-c4ccc(F)cc4)c3c2=O)CC1 the results were TDP1 inh inactive, TDP1 cell noCPT 23µM, miR-21 reporter inactive and DT40 TDP1 CPT inconclusive.
`O=C(CCn1cnc2onc(-c3ccc(F)cc3)c2c1=O)N1CCN(c2ccc(F)cc2)CC1` gave TDP1 inh inactive, TDP1 cell noCPT 18µM, miR-21 reporter inactive and DT40 TDP1 CPT 23µM.
Screening CC(=O)c1ccc(N2CCN(C(=O)CCn3cnc4onc(-c5ccc(F)cc5)c4c3=O)CC2)cc1 returned TDP1 inh inactive, TDP1 cell noCPT inconclusive, miR-21 reporter inconclusive and DT40 TDP1 CPT inconclusive.
CCOc1ccc(NC(=O)CSc2nnc(Cn3cnc4ccccc43)n2C)cc1 was read as TDP1 inh inactive, TDP1 cell noCPT inactive, miR-21 reporter inactive, uPA surface inh inactive and DT40 TDP1 CPT inactive.
For O=S(=O)(c1ccc(S(=O)(=O)N(Cc2ccccc2)Cc2ccco2)cc1)N1CCCC1 the results were TDP1 cell noCPT inconclusive and DT40 TDP1 CPT 15µM.
`CCN(CC(=O)NCc1ccc(F)cc1)CC(=O)Nc1ccc(S(=O)(=O)N2CCCC2)cc1` gave TDP1 inh inactive, TDP1 cell noCPT inactive, miR-21 reporter inactive, uPA surface inh inactive and DT40 TDP1 CPT inactive.
Screening O=C(C1CCCN(S(=O)(=O)c2ccc(Cl)cc2)C1)N(Cc1cccs1)C1CC1 (configuration not stated) returned TDP1 inh inactive, TDP1 cell noCPT 18µM, miR-21 reporter inactive, uPA surface inh inactive and DT40 TDP1 CPT inconclusive.
`CCN(CC(=O)Nc1cc(S(=O)(=O)N2CCCCC2)ccc1Cl)Cc1ccccc1` gave TDP1 cell noCPT 18µM, uPA surface inh inactive and DT40 TDP1 CPT 16µM.
Screening CCN(CC(=O)Nc1ccc(S(=O)(=O)N2CCCCC2)cc1)Cc1ccccc1 returned TDP1 inh inactive, TDP1 cell noCPT inconclusive, uPA surface inh inactive and DT40 TDP1 CPT 12µM.
CN(Cc1cccs1)C(=O)c1ccc(S(=O)(=O)N2CCCCC2)cc1 was read as TDP1 inh inactive, TDP1 cell noCPT inconclusive, miR-21 reporter inactive, uPA surface inh inactive and DT40 TDP1 CPT inconclusive.
For CCN(Cc1ccccc1)S(=O)(=O)c1ccc(S(=O)(=O)N2CCN(C)CC2)cc1 the results were TDP1 inh inactive, TDP1 cell noCPT inactive, miR-21 reporter inactive, uPA surface inh inactive and DT40 TDP1 CPT inactive.
